Measured values reported in IntAct's records for PubMed 21151116.

B1: "DNA (cytosine-5)-methyltransferase 1" (Homo sapiens), P26358 (parent)
chain: MPARTAPARVPTLAVPAISLPDDVRRRLKDLERDSLTEKECVKEKLNLLHEFLQTEIKNQLCDLETKLRKEELSEEGYLAKVKSLLNKDLSLENGAHAYNREVNGRLENGNQARSEARRVGMADANSPPKPLSKPRTPRRSKSDGEAKPEPSPSPRITRKSTRQTTITSHFAKGPAKRKPQEESERAKSDESIKEEDKDQDEKRRRVTSRERVARPLPAEEPERAKSGTRTEKEEERDEKEEKRLRSQTKEPTPKQKLKEEPDREARAGVQADEDEDGDEKDEKKHRSQPKDLAAKRRPEEKEPEKVNPQISDEKDEDEKEEKRRKTTPKEPTEKKMARAKTVMNSKTHPPKCIQCGQYLDDPDLKYGQHPPDAVDEPQMLTNEKLSIFDANESGFESYEALPQHKLTCFSVYCKHGHLCPIDTGLIEKNIELFFSGSAKPIYDDDPSLEGGVNGKNLGPINEWWITGFDGGEKALIGFSTSFAEYILMDPSPEYAPIFGLMQEKIYISKIVVEFLQSNSDSTYEDLINKIETTVPPSGLNLNRFTEDSLLRHAQFVVEQVESYDEAGDSDEQPIFLTPCMRDLIKLAGVTLGQRRAQARRQTIRHSTREKDRGPTKATTTKLVYQIFDTFFAEQIEKDDREDKENAFKRRRCGVCEVCQQPECGKCKACKDMVKFGGSGRSKQACQERRCPNMAMKEADDDEEVDDNIPEMPSPKKMHQGKKKKQNKNRISWVGEAVKTDGKKSYYKKVCIDAETLEVGDCVSVIPDDSSKPLYLARVTALWEDSSNGQMFHAHWFCAGTDTVLGATSDPLELFLVDECEDMQLSYIHSKVKVIYKAPSENWAMEGGMDPESLLEGDDGKTYFYQLWYDQDYARFESPPKTQPTEDNKFKFCVSCARLAEMRQKEIPRVLEQLEDLDSRVLYYSATKNGILYRVGDGVYLPPEAFTFNIKLSSPVKRPRKEPVDEDLYPEHYRKYSDYIKGSNLDAPEPYRIGRIKEIFCPKKSNGRPNETDIKIRVNKFYRPENTHKSTPASYHADINLLYWSDEEAVVDFKAVQGRCTVEYGEDLPECVQVYSMGGPNRFYFLEAYNAKSKSFEDPPNHARSPGNKGKGKGKGKGKPKSQACEPSEPEIEIKLPKLRTLDVFSGCGGLSEGFHQAGISDTLWAIEMWDPAAQAFRLNNPGSTVFTEDCNILLKLVMAGETTNSRGQRLPQKGDVEMLCGGPPCQGFSGMNRFNSRTYSKFKNSLVVSFLSYCDYYRPRFFLLENVRNFVSFKRSMVLKLTLRCLVRMGYQCTFGVLQAGQYGVAQTRRRAIILAAAPGEKLPLFPEPLHVFAPRACQLSVVVDDKKFVSNITRLSSGPFRTITVRDTMSDLPEVRNGASALEISYNGEPQSWFQRQLRGAQYQPILRDHICKDMSALVAARMRHIPLAPGSDWRDLPNIEVRLSDGTMARKLRYTHHDRKNGRSSSGALRGVCSCVEAGKACDPAARQFNTLIPWCLPHTGNRHNHWAGLYGRLEWDGFFSTTVTNPEPMGKQGRVLHPEQHRVVSVRECARSQGFPDTYRLFGNILDKHRQVGNAVPPPLAKAIGLEIKLCMLAKARESASAKIKEEEAAKD
partner: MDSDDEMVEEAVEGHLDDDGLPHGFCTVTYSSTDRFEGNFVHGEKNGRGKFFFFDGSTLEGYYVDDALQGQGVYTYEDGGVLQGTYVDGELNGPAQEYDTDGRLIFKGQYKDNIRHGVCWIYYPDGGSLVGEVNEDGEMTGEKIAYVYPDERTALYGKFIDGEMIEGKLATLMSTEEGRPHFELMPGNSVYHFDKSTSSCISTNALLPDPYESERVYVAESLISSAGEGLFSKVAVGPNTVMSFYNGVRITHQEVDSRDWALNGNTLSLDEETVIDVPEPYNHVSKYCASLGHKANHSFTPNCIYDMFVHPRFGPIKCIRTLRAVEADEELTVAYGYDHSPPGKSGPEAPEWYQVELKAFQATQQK
B2: "DNA (cytosine-5)-methyltransferase 1" (Homo sapiens), P26358 (parent)
chain: B1 chain
partner: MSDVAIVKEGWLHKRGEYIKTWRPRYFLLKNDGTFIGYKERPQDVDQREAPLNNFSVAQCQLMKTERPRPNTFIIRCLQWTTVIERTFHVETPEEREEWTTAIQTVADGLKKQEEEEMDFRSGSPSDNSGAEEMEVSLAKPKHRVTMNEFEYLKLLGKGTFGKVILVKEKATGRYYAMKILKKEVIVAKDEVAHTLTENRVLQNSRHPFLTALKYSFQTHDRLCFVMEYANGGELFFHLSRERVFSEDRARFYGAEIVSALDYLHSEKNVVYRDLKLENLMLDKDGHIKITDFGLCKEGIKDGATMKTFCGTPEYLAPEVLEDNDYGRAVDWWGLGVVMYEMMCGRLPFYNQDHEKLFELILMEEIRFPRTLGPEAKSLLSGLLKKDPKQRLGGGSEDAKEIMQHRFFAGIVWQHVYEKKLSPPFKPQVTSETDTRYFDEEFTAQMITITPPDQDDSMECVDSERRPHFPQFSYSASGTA

Variants of: B1
Conditions: with setd7_human SETD7, Q8WTS6

How did the “effect of a mutation on the interaction” value turn out when K142R was run?
Its value is “disrupting interaction”.

Variants of: B1
Conditions: with setd7_human SETD7, Q8WTS6
Remark: another data set of the same source

Which “effect of a mutation on the interaction” value does the source give for S143D here?
The value was “disrupting interaction”.

Variants of: B2
Conditions: with akt1_human AKT1, P31749

For S143A, which “effect of a mutation on the interaction” value is on record?
Its value is “disrupting interaction”.
